# Results from patent US6207397A, “In vitro fluorescence polarization assay” (ARIAD Pharmaceuticals, Inc., priority 1997, dated 2001).
# Biological target: T1, Src-SH2 (Homo sapiens, UniProt P12931)
# T1 construct: Human Src encoding residues 145-251; made in house; host or cells: E. coli BL21 (DE3), pT7 expression vector
# Test: Fluorescence polarization Src-SH2 competition assay with peptides
# Format: binding
# Conditions: TABLE 1; fixed probe and Src-SH2, increasing peptide; read-out: Peptide competitive IC50
# Experimental: All polarization methods were performed on an FPM2 96-well plate reader (Jolley), with standard cutoff filters (excitation=485 nm; emission=530 nm). Saturation experiments were used to explore various conditions for the assay, with the aim of maximizing the protein and assay stability, and of determining Kd s of the protein/probe interaction.
# For competition experiments, fixed concentrations of probe and protein were used, and increasing concentrations of peptides were added.
# All buffer components were low-fluorescence grade (Panvera Corporation). Standard (STD) buffer contains 20 mM phosphate (pH 7.4), 100 mM NaCl, 2 mM DTT, 1 mM EDTA, and 100 ug/ml BGG. Standard buffer is prepared by preparing NaCl, EDTA and phosphate stocks in Millipore water or the cleanest available water supply. The buffer is brought to volume in the same clean water.
# The SRC protein is used at a concentration of 0.75 uM final. An example of SRC stock solution is 416.6 uM in STD buffer. […] It is desirable to make a 2× stock of this. For assays where the tighter-binding pYpYpYIE probe is used, the Src protein concentration can be reduced to 150 nM. In general, the concentration of the protein can be adjusted to match the affinity of the probe.
# Fluor-GpYEEI is used as the probe at a concentration of 20 nM final. The probe stock sent is 10 uM in STD buffer.
substance,measurement,value
Ac-pYEEI,IC50,8 µM
